Reference: PMC6712002, “Comprehensive in vitro characterization of PD-L1 small molecule inhibitors” (Scientific Reports, 2019)
Bridge positions count the residues as written; N and C are the ends. Square brackets hold non-standard residues; d marks the D form. Peptide text beside a SMILES is read from it. NMeNle = CCCC[C@H](NC)C(=O)O; NMeA = CN[C@@H](C)C(=O)O

By UniProt entry, the sequences of proteins in these tests, tags left out. Residues count along the entry.
UniProt Q9NZQ7, 18-134: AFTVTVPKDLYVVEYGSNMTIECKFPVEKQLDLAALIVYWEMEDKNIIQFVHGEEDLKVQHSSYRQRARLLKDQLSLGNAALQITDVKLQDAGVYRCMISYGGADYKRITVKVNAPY

Assays:
[1] = tested on: PD-1/NFAT reporter Jurkat cells co-cultured with TCR activator/PD-L1-CHO cells; test: Bioluminescent PD-1/PD-L1 cell-based assay (NFAT luciferase reporter)
Fc-PD-L1 = Fc-PD-L1 (Homo sapiens, UniProt Q9NZQ7); test: SPR binding to captured Fc-PD-L1; conditions: Fc-PD-L1 captured on Protein A chip, 25 °C
Fc-B7-1 = target: T1, Fc-B7-1 (Homo sapiens, UniProt P33681); test: SPR binding to captured Fc-B7-1 (specificity)
T1 sequence (P33681 35-242 limits assumed): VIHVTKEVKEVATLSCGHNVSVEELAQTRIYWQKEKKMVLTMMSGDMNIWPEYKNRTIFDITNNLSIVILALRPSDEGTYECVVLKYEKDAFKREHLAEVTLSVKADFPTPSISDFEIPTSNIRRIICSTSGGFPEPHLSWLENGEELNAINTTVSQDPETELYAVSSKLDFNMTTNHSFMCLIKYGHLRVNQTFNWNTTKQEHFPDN

PD-L1 = target: T2, PD-L1 (Homo sapiens, UniProt Q9NZQ7); test: Differential scanning fluorimetry (DSF) of PD-L1; type: binding; conditions: PD-L1 10 µM, compound 50 µM
T2 construct: human PD-L1 (residues 18–134) was cloned into pET21b vector; made in house

In the case of CCCC[C@H]1C(=O)N(C)[C@@H](CCCC)C(=O)N[C@@H](CCCNC(=N)N)C(=O)N[C@H](C(=O)NCC(N)=O)CSCC(=O)N[C@@H](Cc2ccccc2)C(=O)N(C)[C@@H](C)C(=O)N[C@@H](CC(N)=O)C(=O)N2CCC[C@H]2C(=O)N[C@@H](Cc2c[nH]cn2)C(=O)N[C@@H](CC(C)C)C(=O)N[C@@H](CO)C(=O)N[C@@H](Cc2c[nH]c3ccccc23)C(=O)N[C@@H](CO)C(=O)N[C@@H](Cc2c[nH]c3ccccc23)C(=O)N1C [BMSpep-57] ({CH2CO}-F[NMeA]NPHLSWSW[NMeNle][NMeNle]RCG-NH2; thioether N-14; N-terminus and C-terminus assumed), the “fold NFAT luminescence vs cells only” value ([1]; 250 nM and 125 nM) is reported as ~ 2 fold, the “fold NFAT luminescence vs cells only” value ([1]; 1 μM and 500 nM) is reported as ~ 3 fold and the “Rmax (maximum binding response)” value (Fc-PD-L1) is reported as 30.58 ± 6.24 RU. For the same compound, the “binding with captured Fc-B7-1” value (Fc-B7-1) was “None of the BMS inhibitors (BMSpep-57, BMS-103 and BMS-142) showed binding” and the “shift of Tm of PD-L1” value (PD-L1) was 18 ± 0.7 °C.
